# Values quoted from earlier work in patent publication US20040038428A1, “Protein microarrays” (priority 2000, published 2004).
# Chains of the proteins cited; added tags and fusions are not shown.
# UniProt P62942, whole entry: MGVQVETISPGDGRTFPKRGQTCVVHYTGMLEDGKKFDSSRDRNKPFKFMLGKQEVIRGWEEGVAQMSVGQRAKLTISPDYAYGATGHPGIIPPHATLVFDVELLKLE
# Target: FKBP12 (Homo sapiens, UniProt P62942)
# Details: read-out: dissociation constants for FKBP12; cited from earlier work
smiles,measurement,value
CCC(C)(C)C(=O)C(=O)N1CCCC[C@H]1C(=O)OC(CCc1ccc(OC)c(OC)c1)c1cccc(OCC(=O)O)c1 (stereo partly shown),Kd,8.8 nM
